Earlier results on 28 compounds are cited in PubChem BioAssay AID1811.

Experiment in all cases: PubChem AID 1811
In series [1] the target is Tricomonas vaginalis purine nucleoside phosphorylase(TvPNP). Conditions: PDB complex binding affinities from literature; Ki when reported.
Another series deals with apolipoprotein. Particulars: PDB complex binding affinities from literature; Kd when reported.
The next series concerns the target Beta-secretase 1. Particulars: PDB complex binding affinities from literature; IC50 when reported.
Series [2] addresses Cellular retinoic acid-binding protein 2. Particulars: PDB complex binding affinities from literature; Kd when reported.
A further series concerns the target ribonuclease a. Particulars: PDB complex binding affinities from literature; Ki when reported.
The target in series [3] is GLYCEROL-3-PHOSPHATE DEHYDROGENASE
Particulars: PDB complex binding affinities from literature; IC50 when reported.

The target in series [4] is beta-ketoacyl-[acyl carrier protein] synthase i. Conditions: PDB complex binding affinities from literature; Kd when reported.
Series [5] addresses 3-OXOACYL-[ACYL-CARRIER-PROTEIN] SYNTHASE 1. Particulars: PDB complex binding affinities from literature; Kd when reported.
For series [6], the target named is STEROID DELTA-ISOMERASE(P39A). Particulars: PDB complex binding affinities from literature; Kd when reported.
Series [7] has as its target Class I phosphodiesterase PDEB1. Particulars: PDB complex binding affinities from literature; IC50 when reported.
The target in another series is phosphodiesterase 9a. Particulars: PDB complex binding affinities from literature; IC50 when reported.
In the next series the target is dipeptidyl peptidase 4. Conditions: PDB complex binding affinities from literature; Ki when reported.
In a further series the target is Protein Phosphatase 2. Conditions: PDB complex binding affinities from literature; IC50 when reported.
For series [8], the target named is serine/threonine protein phosphatase pp1-gamma. Conditions: PDB complex binding affinities from literature; IC50 when reported.
The target of the next series is alpha-mannosidase II. Conditions: PDB complex binding affinities from literature; IC50 when reported.
Series [9] concerns the target aromatic amino acid aminotransferase. Particulars: PDB complex binding affinities from literature; Kd when reported.
Series [10] addresses Geranylgeranyl pyrophosphate synthetase. Conditions: PDB complex binding affinities from literature; Ki when reported.
The target of a further series is beta-phosphoglucomutase. Particulars: PDB complex binding affinities from literature; Ki when reported.
In the next series the target is adam 17. Particulars: PDB complex binding affinities from literature; Kd when reported.
Series [11] addresses triosephosphate isomerase. Conditions: PDB complex binding affinities from literature; Ki when reported.
Series [12] has as its target serine/threonine-protein kinase pknb. Conditions: PDB complex binding affinities from literature; IC50 when reported.
For series [13], the target named is histamine n-methyltransferase. Particulars: PDB complex binding affinities from literature; Ki when reported.
Series [14] deals with sarcoplasmic/endoplasmic reticulum calcium. Particulars: PDB complex binding affinities from literature; Kd when reported.
For series [15], the target named is carbamoyl-phosphate synthase. Particulars: PDB complex binding affinities from literature; Ki when reported.
In another series the target is Pantothenate kinase. Particulars: PDB complex binding affinities from literature; Kd when reported.
Series [16] concerns the target potassium-transporting atpase b chain. Particulars: PDB complex binding affinities from literature; Kd when reported.
Series [17] concerns the target Renilla-luciferin 2-monooxygenase. Particulars: PDB complex binding affinities from literature; Ki when reported.
For series [18], the target named is phosphoenolpyruvate carboxykinase. Conditions: PDB complex binding affinities from literature; Ki when reported.
The target of series [19] is macrophage metalloelastase (mmp-12). Conditions: PDB complex binding affinities from literature; Kd when reported.
Series [20] deals with Macrophage metalloelastase(F171D). Particulars: PDB complex binding affinities from literature; Kd when reported.
The target of the next series is Mevalonate kinase. Particulars: PDB complex binding affinities from literature; Kd when reported.
For another series, the target named is streptavidin. Conditions: PDB complex binding affinities from literature; Kd when reported.
The next series concerns the target beta-arrestin 1. Conditions: PDB complex binding affinities from literature; Kd when reported.
Series [21] deals with phosphoglycerate mutase 1. Conditions: PDB complex binding affinities from literature; Ki when reported.
In the next series the target is Dimeric dihydrodiol. Particulars: PDB complex binding affinities from literature; IC50 when reported.

pIC50, pKd, pKi: −log10 of the molar value.

By pKi is commonly meant the negative decadic logarithm of the Ki, by convention in mol/L. For `Nc1ncnc2c([C@@H]3N[C@H](CO)[C@@H](O)[C@H]3O)c[nH]c12`, in series [1], the pKi is 9.00.

In general, pKd refers to the Kd on a negative log10 scale, so that one unit is a factor of ten. `NCCCCCC(=O)O`: on apolipoprotein, the negative-log Kd (pKd) was 4.70.

For orientation: pIC50 means the negative decadic logarithm of the IC50, by convention in mol/L. For the compound `C[C@@H](NC(=O)c1cc(COC(=O)[C@](C)(N)Cc2ccccc2)cc(N(C)S(C)(=O)=O)c1)c1ccc(F)cc1`, the pIC50 on Beta-secretase 1 is 7.57.

With `CC1=C(/C=C/C(C)=C/C=C/C(C)=C/C=O)C(C)(C)CCC1`, the pKd in series [2] was 6.92.

Regarding `O=c1ccn([C@@H]2O[C@H](CO)[C@@H](O)[C@H]2O)c(=O)[nH]1`, the pKi on ribonuclease a was 4.40.

Consider `Fc1nc(Cl)c2[nH]cnc2n1`, for which the pIC50 in series [3] was 2.30.

For the compound `C=C/C(C)=C/[C@@]1(C)SC(=O)C(C)=C1O`, the pKd was 4.59 in series [4] and 4.60 in series [5].

In the case of `C[C@]12CCc3c(ccc4cc(O)ccc34)[C@@H]1CCC2=O`, the pKd in [6] was 5.85.

As to `CC(C)Cn1c(=O)n(C)c(=O)c2[nH]cnc21`, the pIC50 in series [7] was 3.24; on phosphodiesterase 9a, 3.30.

`Cn1c(=O)c2c(nc(N3CCNCC3)n2Cc2ccccc2)n(C)c1=O`: the pKi on dipeptidyl peptidase 4 was 6.20.

`C=C1[C@@H](O)[C@@H]2O[C@]3(CC[C@H](/C=C/[C@@H](C)[C@@H]4CC(C)=C[C@@]5(O[C@H](C[C@@](C)(O)C(=O)O)CC[C@H]5O)O4)O3)CC[C@H]2O[C@@H]1[C@@H](O)C[C@H](C)[C@H]1O[C@@]2(CCCCO2)CC[C@H]1C`: the results for the pIC50 (at Protein Phosphatase 2; in [8]) were 10.00 and 7.01, respectively.

As to `OC[C@@H](NC[C@H]1NC[C@H](O)[C@@H]1O)c1ccccc1`, the pIC50 on alpha-mannosidase II is 3.14.

As for `O=C(O)CCCc1ccccc1`, the pKd in series [9] is 2.30.

In the case of `CC(C)=CCC/C(C)=C/CC/C(C)=C/CC/C(C)=C/COP(=O)(O)OP(=O)(O)O`, the pKi in [10] was 4.60.

`O=P(O)(O)O[C@H]1O[C@H](CO)[C@H](O)[C@H](O)[C@H]1O`: the pKi at beta-phosphoglucomutase was 4.52.

As for `Cc1cc(COc2ccc([C@]3(C)CCN([C@H](C)C(=O)NO)C3=O)cc2)c2ccccc2n1`, the negative-log Kd (pKd) on adam 17 was more than 11.70.

For the compound `O=P(O)(O)OC[C@@H](O)CO`, the pKi in [11] was 3.21.

With `O=C1c2c(O)ccc(O)c2C(=O)c2c(NCCNCCO)ccc(NCCNCCO)c21`, the pIC50 in series [12] was 6.10.

Take `CCN(CC)Cc1cc(Nc2ccnc3cc(Cl)ccc23)ccc1O`: in series [13], the pKi was 7.73.

In the case of `CC(C)(C)c1cc(O)c(C(C)(C)C)cc1O`, the pKd in [14] is 7.70.

Turning to `Nc1ncnc2c1ncn2[C@@H]1O[C@H](COP(=O)(O)OP(=O)(O)NP(=O)(O)O)[C@@H](O)[C@H]1O`, in series [15], the pKi is 3.40. Also, the pKd on Pantothenate kinase is 6.62; in series [16], 2.85.

`O=C(Cc1ccc(O)cc1)Nc1ncc(-c2ccc(O)cc2)nc1Cc1ccccc1`: in [17], the pKi is 7.70.

For `O=C(O)CC(=O)O`, the pKi in series [18] is less than 1.30.

In the case of `COc1ccc(S(=O)(=O)N(CC(=O)NO)CC(C)C)cc1`, the pKd in [19] and in series [20] was 8.00 in each case.

Consider `C[C@@](O)(CCOP(=O)(O)OP(=O)(O)O)CC(=O)O`, for which the pKd at Mevalonate kinase is 6.30.

With `NC1=N[C@H]2[C@H](CS[C@H]2CCCCC(=O)O)N1`, the pKd on streptavidin is 6.00.

For the compound `O=P(O)(O)OC1C(OP(=O)(O)O)C(OP(=O)(O)O)C(OP(=O)(O)O)C(OP(=O)(O)O)C1OP(=O)(O)O` (stereo not given), the pKd at beta-arrestin 1 is 7.07. Besides, in series [21], the pKi is 5.40.

With `CC(=O)c1ccc(O)cc1`, the pIC50 at Dimeric dihydrodiol was 6.01.
